Experimental data reported in paper PMC5454376 (2017).
Read-outs that look alike come from different tables or passages of the source.

Legend:
Assay in all cases: FP
[1] = target: T1, Human His-Gαi3 WT (human, UniProt P08754 1-354)
T1 chain: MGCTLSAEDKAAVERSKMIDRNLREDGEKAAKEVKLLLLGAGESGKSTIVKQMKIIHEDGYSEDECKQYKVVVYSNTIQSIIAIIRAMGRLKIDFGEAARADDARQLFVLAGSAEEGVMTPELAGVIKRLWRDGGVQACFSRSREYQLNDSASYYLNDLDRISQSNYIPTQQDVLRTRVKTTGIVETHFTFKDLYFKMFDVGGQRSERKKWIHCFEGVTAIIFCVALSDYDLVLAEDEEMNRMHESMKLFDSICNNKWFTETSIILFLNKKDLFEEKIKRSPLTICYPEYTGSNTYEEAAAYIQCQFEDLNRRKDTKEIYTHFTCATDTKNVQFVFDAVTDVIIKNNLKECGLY

[2] = target: T2, Full-length human Gαi3, untagged (NMR sample) (human, UniProt P08754 1-354)
T2 chain: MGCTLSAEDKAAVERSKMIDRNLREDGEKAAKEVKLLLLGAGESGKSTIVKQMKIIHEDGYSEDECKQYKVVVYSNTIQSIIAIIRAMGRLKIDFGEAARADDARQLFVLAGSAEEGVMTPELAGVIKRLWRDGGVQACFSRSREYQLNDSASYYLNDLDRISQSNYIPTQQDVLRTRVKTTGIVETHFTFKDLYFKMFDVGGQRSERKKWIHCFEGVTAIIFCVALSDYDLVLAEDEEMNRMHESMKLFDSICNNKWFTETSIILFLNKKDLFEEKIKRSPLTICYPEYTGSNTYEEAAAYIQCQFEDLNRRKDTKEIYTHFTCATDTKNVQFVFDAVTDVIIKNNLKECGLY

[3] = target: T1, Human His-Gαi3 WT
[4] = target: T1, Human His-Gαi3 WT

Kd [1]: 0.303 µM
Kd [2]: 0.37 µM
Kd [3]: 0.3 µM
Kd [4]: 0.3 µM
B1: Fluorescein-labelled DAPLE peptide (residues 1,662–1,695) (peptide)
peptide: SASPSSEMVTLEEFLEESNRSSPTHDTPSCRDDL
modifications: 5,6-carboxyfluorescein coupled to the resin-bound peptide after chain elongation
